Results from patent publication EP4831185A1, “NOVEL IDEBENONE PHOSPHATE, SALT COMPOUND THEREOF, PREPARATION METHOD THEREFOR AND USE THEREOF” (dated 2026).

Assays:
[1] = system: neuroblastoma (SH-SY5Y) cell; experiment: Oxygen-glucose deprivation/reoxygenation (OGD/R) induced cell injury, CCK-8 cell survival; settings: mean ± SD
[2] = Water solubility test (Chinese Pharmacopoeia 2020 method); settings: pure water, 25°C±2°C, dissolution within 30 minutes
[3] = system: rats; settings: cited from earlier work
[4] = system: mice; settings: cited from earlier work
[5] = oral administration; cited from earlier work
[6] = system: tMCAO rats; experiment: Focal cerebral ischemia tMCAO reperfusion model, cerebral infarct by TTC staining; settings: for reduction of the cerebral infarct volume: tail vein immediately after reperfusion, 24 hours after ischemia

Compound: COC1=C(OC)C(=O)C(CCCCCCCCCCOP(=O)([O-])[O-])=C(C)C1=O.[K+].[K+]
- Cell survival rate (%) ([1]; 0.3 µM, n = 3): 79.78±5.60%
- Cell survival rate (%) ([1]; 1 µM, n = 3): 79.36±5.99%
- Cell survival rate (%) ([1]; 3 µM, n = 3): 81.86±2.93%
- Result (water solubility class) [2]: Freely soluble (Means that 1 g (ml) of solute can be dissolved in 1 to less than 10 ml of solvent;)

Compound: COC1=C(OC)C(=O)C(CCCCCCCCCCO)=C(C)C1=O
- Cell survival rate (%) ([1]; 0.3 µM, n = 3): 79.92±3.12%
- Cell survival rate (%) ([1]; 1 µM, n = 3): 87.40±4.72%
- Cell survival rate (%) ([1]; 3 µM, n = 3): 95.71±0.87 %
- oral LD50 [3]: greater than 10000 mg/kg
- oral LD50 [4]: greater than 10000 mg/kg
- dose reaching the systemic blood circulation (bioavailability) [5]: 1%

Compound: COC1=C(OC)C(=O)C(CCCCCCCCCCOP(=O)(O)O)=C(C)C1=O
- Cell survival rate (%) ([1]; 0.3 µM, n = 3, listed as SIPI11527): 78.95±2.82%
- Cell survival rate (%) ([1]; 0.3 µM, n = 3, listed as SIPI11528): 78.12±5.20%
- Cell survival rate (%) ([1]; 0.3 µM, n = 3, listed as SIPI11529): 81.30±3.20%
- Cell survival rate (%) ([1]; 0.3 µM, n = 3, listed as SIPI11530): 78.81±5.78%
- Cell survival rate (%) ([1]; 1 µM, n = 3, listed as SIPI11527): 79.22±3.67%
- Cell survival rate (%) ([1]; 1 µM, n = 3, listed as SIPI11528): 79.50±3.46%
- Cell survival rate (%) ([1]; 1 µM, n = 3, listed as SIPI11529): 89.20±2.56%
- Cell survival rate (%) ([1]; 1 µM, n = 3, listed as SIPI11530): 77.70±4.74%
- Cell survival rate (%) ([1]; 3 µM, n = 3, listed as SIPI11527): 79.09±3.91%
- Cell survival rate (%) ([1]; 3 µM, n = 3, listed as SIPI11528): 79.78±3.12%
- Cell survival rate (%) ([1]; 3 µM, n = 3, listed as SIPI11529): 94.46% and 94.46±2.81 %
- Cell survival rate (%) ([1]; 3 µM, n = 3, listed as SIPI11530): 78.67±1.97%
- reduction of the cerebral infarct volume ([6]; high-dose group 40 mg/kg, P<0.01 vs Model group): 38.8%
- cerebral infarct volume in tMCAO rats (result in words) ([6]; medium and high doses (20 and 40 mg/kg), P < 0.05 vs. Model group): significantly reduce the cerebral infarct volume
- reduction of the cerebral infarct volume ([6]; medium-dose group 20 mg/kg, P<0.05 vs Model group): 31.1%

Compound: COC1=C(OC)C(=O)C(CCCCCCCCCCOP(=O)(O)O)=C(C)C1=O.N.N
- Cell survival rate (%) ([1]; 0.3 µM, n = 3): 79.92±1.24%
- Cell survival rate (%) ([1]; 1 µM, n = 3): 78.95±6.06%
- Cell survival rate (%) ([1]; 3 µM, n = 3): 78.12±1.49%
- Result (water solubility class) [2]: Freely soluble (Means that 1 g (ml) of solute can be dissolved in 1 to less than 10 ml of solvent;)

Compound: COC1=C(OC)C(=O)C(CCCCCCCCCCOP(=O)([O-])[O-])=C(C)C1=O.[Na+].[Na+]
- Cell survival rate (%) ([1]; 0.3 µM, n = 3): 78.12±6.55%
- Cell survival rate (%) ([1]; 1 µM, n = 3): 78.39±5.78%
- Cell survival rate (%) ([1]; 3 µM, n = 3): 84.63±2.14%
- Result (water solubility class) [2]: Freely soluble (Means that 1 g (ml) of solute can be dissolved in 1 to less than 10 ml of solvent;)

“And” between values parts separate entries of the source, which are not always exact repeats. Identical values can stand only once.
